The target in the experiment is T1, KDM4A (Homo sapiens, UniProt O75164).
T1 sequence (O75164 2-1064): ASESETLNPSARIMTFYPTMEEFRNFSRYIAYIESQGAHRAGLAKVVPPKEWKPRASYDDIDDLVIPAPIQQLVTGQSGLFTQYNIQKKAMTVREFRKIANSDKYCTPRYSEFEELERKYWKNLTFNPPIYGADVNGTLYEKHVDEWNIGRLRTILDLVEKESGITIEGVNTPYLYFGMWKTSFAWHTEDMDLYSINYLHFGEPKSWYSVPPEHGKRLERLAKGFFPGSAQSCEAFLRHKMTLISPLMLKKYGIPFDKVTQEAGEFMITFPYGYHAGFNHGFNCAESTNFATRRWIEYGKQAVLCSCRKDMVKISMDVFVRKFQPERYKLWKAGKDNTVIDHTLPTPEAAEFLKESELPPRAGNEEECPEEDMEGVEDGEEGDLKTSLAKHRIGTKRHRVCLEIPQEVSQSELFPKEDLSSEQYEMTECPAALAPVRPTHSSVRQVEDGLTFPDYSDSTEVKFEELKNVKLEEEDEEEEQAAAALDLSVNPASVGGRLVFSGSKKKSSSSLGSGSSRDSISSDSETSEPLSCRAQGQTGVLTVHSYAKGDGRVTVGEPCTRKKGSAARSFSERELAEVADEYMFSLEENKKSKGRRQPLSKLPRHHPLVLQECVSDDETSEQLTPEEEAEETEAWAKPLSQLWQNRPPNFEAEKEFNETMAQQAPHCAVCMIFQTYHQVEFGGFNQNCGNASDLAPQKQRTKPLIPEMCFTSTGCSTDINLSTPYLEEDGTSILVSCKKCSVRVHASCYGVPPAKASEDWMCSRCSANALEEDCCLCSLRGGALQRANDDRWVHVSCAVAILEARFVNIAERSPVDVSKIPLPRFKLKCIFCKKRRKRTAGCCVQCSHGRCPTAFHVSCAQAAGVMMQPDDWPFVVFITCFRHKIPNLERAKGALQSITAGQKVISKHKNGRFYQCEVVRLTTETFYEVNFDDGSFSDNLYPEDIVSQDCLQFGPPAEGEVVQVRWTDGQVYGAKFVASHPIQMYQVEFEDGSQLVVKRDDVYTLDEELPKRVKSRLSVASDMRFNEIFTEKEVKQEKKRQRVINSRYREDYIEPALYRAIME
As to the kind of experiment: RapidFire mass spectrometry in vitro demethylation assay, recombinant human KDM4A, H3K9(me3) peptide. The class given is biochemical.

This is an account of results in publication PMC5027283, “The oncometabolite 2-hydroxyglutarate activates the mTOR signalling pathway” (Nature Communications, 2016).

Usually IC50 stands for the concentration needed to halve the response being measured. For the molecule `O=C(O)CC[C@@H](O)C(=O)O` [R-2-hydroxyglutarate], the IC50 worked out at 2100 nM.
